{
  "source": "PubChem BioAssay AID651800",
  "about": "(The Scripps Research Institute Molecular Screening Center, 2012)",
  "note": "This is a selection; strong and weak results do not stand in their true shares. Activity calls are given as the source filed them. No stated cut-off is given here; in the data, active means inhibition above about 19%; inactive means the rest.",
  "data": [
    {"tested_on": "T-cell receptor (TCR)", "assay": "inhibitors of human TCR-CD3 interaction, primary screen, biochemical, fluorescence, TAMRA-labeled TCR probe (AID 651800);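 further: recombinant mutant TCR 2C K166C tagged with TAMRA read by polarization; 0% = receptor in buffer alone and 100% = receptor with positive control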", "details": "at 9.4 µM, active compounds read high", "values": [
      {"molecule": "CCCOP(=S)(Nc1nc(N)cc(=O)[nH]1)OCCC", "inhibition": "inactive: 0.31%"},
      {"molecule": "Nc1ccccc1[As](=O)(O)c1ccccc1", "inhibition": "inactive: 4.65%"},
      {"molecule": "O=C(O)COc1ccc([As](=O)(O)O)cc1[N+](=O)[O-]", "inhibition": "inactive: 0.74%"},
      {"molecule": "O=P(Nc1nccs1)(Oc1ccccc1)Oc1ccccc1", "inhibition": "inactive: -1.89%"},
      {"molecule": "CCOP1(=S)c2c(C)nn(CCC#N)c2N=C(c2ccccc2F)N1C", "note": "(stereo unspecified)", "inhibition": "inactive: 3.25%"},
      {"molecule": "CN(C(=O)Cc1ccccc1)[C@@H]1CC[C@]2(CCCO2)C[C@H]1N1CCCC1", "inhibition": "inactive: -2.02%"},
      {"molecule": "CCOP1(=S)c2c(C)nn(CCC#N)c2N=C(c2ccc(F)cc2)N1C", "note": "(stereo unspecified)", "inhibition": "inactive: -1.11%"},
      {"molecule": "N#CCCN(C(=O)COC(=O)C(O)(c1ccccc1)c1ccccc1)c1ccc(F)cc1", "inhibition": "inactive: 4.26%"},
      {"molecule": "CN(C(=O)Cc1ccc(Cl)c(Cl)c1)[C@H]1CC[C@@]2(CCCO2)C[C@@H]1N1CCCC1", "inhibition": "inactive: 1.1%"},
      {"molecule": "O=[N+]([O-])c1ccc2c(c1)nnn2O", "inhibition": "inactive: 1.06%"},
      {"molecule": "CN(C)C(=O)c1cc([N+](=O)[O-])cc2c1-c1c(cc([N+](=O)[O-])cc1[N+](=O)[O-])C2=O", "inhibition": "inactive: 4.93%"},
      {"molecule": "NC(=O)Nc1ccc([As](=O)(O)O)cc1", "inhibition": "inactive: 4.63%"},
      {"molecule": "CN(C)C1(CNC(=O)c2ccc(S(C)(=O)=O)cc2)CCCCC1", "inhibition": "inactive: 1.85%"},
      {"molecule": "CCCC1OP(=O)(Nc2ccccc2)OCC1CC", "note": "(stereo unspecified)", "inhibition": "inactive: -10.3%"},
      {"molecule": "O=C(/C=C/c1ccccc1)OC1CN2CCC1CC2", "note": "(stereo unspecified)", "inhibition": "inactive: 1.4%"},
      {"molecule": "CC1CCC(C(C)C)C(OP(=O)(Nc2ccccn2)c2ccccc2)C1", "note": "(stereo unspecified)", "inhibition": "inactive: -3.15%"},
      {"molecule": "Cc1ccc(C(=O)OC2CN3CCC2CC3)cc1", "note": "(stereo unspecified)", "inhibition": "inactive: 8.6%"},
      {"molecule": "Cc1nn(-c2ccccc2)c2c1P(=O)(N1CCOCC1)N(C)C(c1ccccc1)=N2", "note": "(stereo unspecified)", "inhibition": "inactive: 3.03%"},
      {"molecule": "Nc1cccc([As](=O)(O)c2ccccc2)c1", "inhibition": "inactive: 2.02%"},
      {"molecule": "O=[As](O)(c1cccs1)c1cccs1", "inhibition": "inactive: -11.5%"},
      {"molecule": "Cc1ccc(OCC(=O)OC2CN3CCC2CC3)cc1", "note": "(stereo unspecified)", "inhibition": "inactive: 9.35%"},
      {"molecule": "O=P1(Nc2ccc(Br)cn2)COc2ccccc2OC1", "inhibition": "inactive: 0.48%"},
      {"molecule": "NS(=O)(=O)c1cccc(NC(=O)COC(=O)C(O)(c2ccccc2)c2ccccc2)c1", "inhibition": "inactive: -5%"},
      {"molecule": "Cc1ccc(S(=O)(=O)N(CCCN)CCCc2c(C)nc(N)[nH]c2=O)cc1", "inhibition": "inactive: 2.06%"},
      {"molecule": "O=P1(Nc2ncccn2)COc2ccccc2OC1", "inhibition": "inactive: -2.51%"},
      {"molecule": "CC(C)(C)C(=O)NC(Sc1ncccn1)C(Cl)(Cl)Cl", "note": "(stereo unspecified)", "inhibition": "inactive: -3.28%"},
      {"molecule": "O=P1(N(CCCl)CCCl)NCCC(C(F)(F)F)O1", "note": "(stereo unspecified)", "inhibition": "inactive: 6.41%"},
      {"molecule": "Clc1n[nH]nc1-c1nn[nH][15n]1", "inhibition": "inactive: 4.61%"},
      {"molecule": "CCOP(=O)(NC(=NC(C)c1ccccc1)NC(C)c1ccccc1)OCC", "note": "(stereo unspecified)", "inhibition": "inactive: 0.81%"},
      {"molecule": "O=P1(Nc2ccccn2)COc2ccccc2OC1", "inhibition": "inactive: 7.87%"},
      {"molecule": "CCC1=CC2Cc3nc4ccc(Cl)cc4c(N)c3C(C1)C2", "note": "(stereo unspecified)", "inhibition": "inactive: -0.36%"},
      {"molecule": "CCOP(=O)(Nc1ccc(C)cn1)OCC", "inhibition": "inactive: 0.39%"},
      {"molecule": "CN(CCCl)Cc1cc(Cl)c(NC2=NCCN2)c(Cl)c1", "inhibition": "inactive: 3.17%"},
      {"molecule": "CN(C(=O)Cc1ccc(Cl)c(Cl)c1)C1CCCC[C@@H]1N1CCCC1", "note": "(stereo partly specified)", "inhibition": "inactive: -3.2%"},
      {"molecule": "CC(C)/C=N\\N=C(\\N)N[N+](=O)[O-]", "inhibition": "inactive: -1.06%"},
      {"molecule": "CN(C(=O)Cc1ccc(Cl)c(Cl)c1)[C@@H]1CCCC[C@H]1N1CCCC1", "inhibition": "inactive: -1.01%"},
      {"molecule": "CC1(CBr)Cn2c(nc3ccccc3c2=O)S1", "note": "(stereo unspecified)", "inhibition": "inactive: -9.56%"},
      {"molecule": "COc1ccccc1CNC(=O)COC(=O)C(O)(c1ccccc1)c1ccccc1", "inhibition": "inactive: 0.61%"},
      {"molecule": "c1nnnn1CCn1cnnn1", "inhibition": "inactive: -0.17%"},
      {"molecule": "CC(C)C(=O)NC(Sc1ccccc1)C(Cl)(Cl)Cl", "note": "(stereo unspecified)", "inhibition": "inactive: -2.18%"},
      {"molecule": "O=P(Nc1nccs1)(c1ccccc1)c1ccccc1", "inhibition": "inactive: 2.61%"},
      {"molecule": "C[C@H]1OP(=O)(Oc2ccccc2)[C@H](O)[C@H](O)[C@H]1N=[N+]=[N-]", "note": "(stereo partly specified)", "inhibition": "inactive: 4.76%"},
      {"molecule": "O=P(Nc1nc2ccccc2s1)(c1ccccc1)c1ccccc1", "inhibition": "inactive: 6.71%"},
      {"molecule": "O=P(Nc1ccccn1)(c1ccc(Br)cc1)c1ccc(Br)cc1", "inhibition": "inactive: -0.49%"},
      {"molecule": "CN(C)C1(CNC(=O)c2ccc(Cl)c(S(N)(=O)=O)c2)CCCCC1", "inhibition": "inactive: -1.82%"},
      {"molecule": "COc1ccc(N)c([N+](=O)[O-])c1[N+](=O)[O-]", "inhibition": "inactive: 0.06%"},
      {"molecule": "Nc1ccc(CCCCOc2ccccc2)cc1", "inhibition": "inactive: 11.8%"},
      {"molecule": "O=C(OC1CN2CCC1CC2)c1cccc(Cl)c1", "note": "(stereo unspecified)", "inhibition": "inactive: 0.03%"},
      {"molecule": "C(Cc1nn[nH]n1)Cc1nn[nH]n1", "inhibition": "inactive: 9.24%"},
      {"molecule": "Nc1ccc([As](=O)(O)c2ccc([N+](=O)[O-])cc2)cc1", "inhibition": "inactive: 5.57%"},
      {"molecule": "C/C(N)=N\\P(=O)(OCc1ccccc1)OCc1ccccc1", "inhibition": "inactive: 1.39%"}
    ]}
  ]
}
